Legend:
[1] = tested on: vasodilator-stimulated protein (VASP); test: VASP phosphorylation in PC-3 cells
[2] = tested on: ERK1/2; test: ERK1/2 (p42/p44-MAPK) phosphorylation immunoblot in prostate cancer cells
[3] = tested on: p38-MAPK; test: p38-MAPK activation, phosphospecific antibodies; settings: PC-3 and DU145 cells
[4] = tested on: PKA; test: PKA activation in PC-3 cells; type: cell-based, human
[5] = tested on: AKT; test: AKT phosphorylation immunoblot in prostate cancer cells; type: cell-based, human; settings: PC-3 and DU145 cells
[6] = tested on: PC-3 cells; test: calcium mobilization assay in androgen insensitive prostate cancer PC-3 cells; settings: read-out: EC50 of calcium mobilization
[7] = tested on: PC-3 cells; test: lamellipodia formation in PC-3 cells; type: cell-based, human; settings: PC-3, FIG. 41
[8] = tested on: LNCaP cells; test: calcium mobilization in androgen sensitive prostate cancer LNCaP cells
[9] = tested on: HT29 cells; test: calcium mobilization assay in colon cancer HT29 cells

CCCCCCCC/C=C\CCCCCCCC(=O)OC[C@@H](O)COP(=O)(O)O
induction of VASP phosphorylation at Ser157 PKA site [1]: induced phosphorylation | phosphorylation of p42 and p44 MAP kinase ([2]; LNCaP cells, FIG. 52): no phosphorylation of p42 and p44 MAP kinase | activation of p42/p44-MAPK ([2]; PC-3 and DU145 cells): activates | activation of p38-MAPK [3]: activates | activation of PKA [4]: efficiently activate PKA | activation of AKT [5]: activates | EC50 [6]: 5 nM | induction of lamellipodia formation [7]: induces LPA2 receptor mediated lamellipodia formation | calcium mobilization [8]: no calcium mobilization | stimulation of calcium mobilization ([9]; FIG. 3): stimulates calcium mobilization | EC50 ([9]; read-out: EC50 of calcium mobilization, 95% confidence about 8.2 to about 59.2 nM): 22.1 nM
